From ChEMBL document CHEMBL1132146, “Chemical stability and fate of the cytostatic drug ifosfamide and its N-dechloroethylated metabolites in acidic aqueous solutions” (J Med Chem, 1999)

Assay: pKa. (dissociation constant) of the compound
Type: physicochemical
Summary of the method: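 ³¹P NMR titration at 25 °C in aqueous 0.1 M NaCl to keep ionic strength constant. pH adjusted with NaOH or HCl and measured before and after each spectrum. pKa calculated from the pH dependence of the chemical shift.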

Row | SMILES | pKa
1 | O=P(O)(NCCCl)OCCCNCCCl | 1.6
2 | NCCCOP(=O)(O)NCCCl | 1.6
